Experimental data published in PubChem BioAssay (Tox21).
Only a part is listed here, and it is no random draw. Records with an inconclusive call do not appear. The source made the active and inactive calls. Calls follow the shape of the full dose curve.

Assay: qHTS assay for small molecule agonists of the antioxidant response element (ARE) signaling pathway - cell viability counter screen (AID 743203); also: nearly all actives have a fitted effect of over 55% in size
Conditions: ARE-bla HepG2 viability, CellTiter-Glo luminescence, 16 h; series mostly up to 73.3 µM; viability change, negative = cytotoxic: at the top concentration
Description: National Center for Advancing Translational Sciences [NCATS]
NIH Chemical Genomics Center [NCGC]
U.S. Environmental Protection Agency [EPA]
National Institutes of Environmental Health Sciences [NIEHS]
National Toxicology Program [NTP]
U.S. Food and Drug Administration [FDA]
Oxidative stress has been implicated in the pathogenesis of a variety of diseases ranging from cancer to neurodegeneration. The antioxidant response element (ARE) signaling pathway plays an important role in the amelioration of oxidative stress. The CellSensor ARE-bla HepG2 cell line (Invitrogen) can be used for analyzing the Nrf2/antioxidant response signaling pathway. Nrf2 (NF-E2-related factor 2) and Nrf1 are transcription factors that bind to AREs and activate these genes. The CellSensor ARE-bla Hep G2 cell line contains a beta-lactamase reporter gene under control of the Antioxidant Response Element (ARE) stably integrated into HepG2 cells. The activation of the report gene under culture conditions can be detected by fluorescence intensity. This cell line has been used to screen the Tox21 10K compound library to identify agonists that induce oxidative stress. The cytotoxicity of the Tox21 compound library against the ARE-bla cell line was tested in parallel by measuring the cell viability using CellTiter-Glo assay (Promega, Madison, WI) in the same wells.
Tox21 Assay Protocol Summary:
ARE-bla HepG2 cells were dispensed at 2,000 cells/5 ul/well in 1536-well white wall/solid bottom plates using a Multidrop Combi (ThermoFisher Scientific, Waltham, MA) dispenser. After the assay plates were incubated at 37C/5% CO2 for 5 hrs, 23 nL of compounds dissolved in DMSO, positive controls or DMSO only was transferred to the assay plate by a pintool work station (Kalypsys, San Diego, CA). The plates were incubated at 37C/5% CO2 for 16 hrs, followed by addition of 4 ul/well of CellTiter-Glo reagent into the assay plates using a Flying Reagent Dispenser (Aurora Discovery, San Diego, CA). After 30 min incubation at room temperature, the luminescence intensity in the assay plates was measured using a ViewLux (PerkinElmer, Shelton, CT) plate reader.
% is scaled to controls: 0 for no effect and ±100 for the full control effect; potency is read from the fitted curve at half-maximal effect.

| Structure (SMILES) | viability change, negative = cytotoxic | Potency |
| --- | --- | --- |
| Cc1cc([N+](=O)[O-])c(O)c([N+](=O)[O-])c1 | inactive: -0.217% [at 94.8 µM] |  |
| O=[N+]([O-])c1ccc(S(=O)(=O)O)c([N+](=O)[O-])c1 | inactive: 6.21% [at 94.8 µM] |  |
| O=[P+](Oc1ccccc1)Oc1ccccc1 | inactive: 10.5% |  |
| O=[As]c1ccccc1 (stereo not given) |  | active: 344 nM |
| CCNC(C)Cc1ccc2c(c1)OCO2 (stereo not given) | inactive: -4.59% [at 94.8 µM] |  |
| CC(C)CCCCCCCOP(OCCCCCCCC(C)C)Oc1ccccc1 | inactive: -1.64% |  |
| CN(C(=O)Cc1cccc2occc12)[C@H]1CC[C@@]2(CCCO2)C[C@@H]1N1CCCC1 | inactive: 3.36% |  |
| CCCCO[P+](=O)OCCCC |  | inactive |
| CN(C(=O)Cc1ccc(Cl)c(Cl)c1)[C@H]1CC[C@@]2(CCCO2)C[C@@H]1N1CCCC1 | inactive: -4% |  |
| CN(N=O)C(=N)N[N+](=O)[O-] | inactive: -2.66% |  |
| CCOP(=S)(CC)Sc1ccccc1 (stereo not given) | inactive: -13.3% |  |
| COP(=S)(Cl)OC | inactive: 2.18% [at 94.8 µM] |  |
| NC(=O)Nc1ccc([As](=O)(O)O)cc1 |  | inactive |
| CN(C(=O)Cc1ccccc1)[C@H]1CC[C@@]2(CCCO2)C[C@@H]1N1CCCC1 | inactive: -4.25% |  |
| O=[p+]1oc2ccccc2c2ccccc21 (stereo not given) | inactive: 10.5% |  |
| COC(=O)Cl | inactive: 3.83% |  |
| ClP(Cl)c1ccccc1 | inactive: -0.0923% |  |
| O=P(Cl)(Oc1ccccc1)Oc1ccccc1 | inactive: 19.8% |  |
| CCOC(=O)Cl | inactive: -13.2% |  |
| CCCCC(CC)CO[P+](=O)OCC(CC)CCCC (stereo not given) | inactive: 7.15% |  |
